Here are results for one compound from US11028072B2, “2,4-diamino-6-ethylpyrimidine derivatives with antimalarial activities against Plasmodium falciparum” (National Science and Technology Development Agency, priority 2015, dated 2021).

The chains behind the UniProt entries cited, without tags or fusion partners.
UniProt P00374, whole entry: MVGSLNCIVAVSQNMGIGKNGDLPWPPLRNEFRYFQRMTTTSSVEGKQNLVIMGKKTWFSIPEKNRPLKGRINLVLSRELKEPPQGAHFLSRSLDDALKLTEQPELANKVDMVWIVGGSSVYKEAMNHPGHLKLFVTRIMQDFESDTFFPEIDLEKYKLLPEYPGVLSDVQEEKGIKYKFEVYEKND

For orientation: pKi means the Ki on a negative log10 scale, so that one unit is a factor of ten.

pKi: −log10 of the molar value.

The assay concerns the target Human dihydrofolate reductase (hDHFR) (Homo sapiens, UniProt P00374). The assay can be described thus: Inhibition of human dihydrofolate reductase (Ki). It is filed as biochemical. The settings on record: read-out: Ki hDHFR; human DHFR; hydrochloride salts; tested form: HCl.

Consider `CCc1nc(N)nc(N)c1OCCCc1cn(Cc2cccc(C(=O)O)c2)nn1`, for which the pKi is 7.02.
